# Key:
# Protein sequences, listed by entry. Tags and fused reporters are not part of them. Residues count along the entry.
# UniProt P51531, 1377-1486 isoform P51531-2: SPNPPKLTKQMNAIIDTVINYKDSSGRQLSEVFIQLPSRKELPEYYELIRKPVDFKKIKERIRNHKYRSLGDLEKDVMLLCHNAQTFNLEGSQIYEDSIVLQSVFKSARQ
# UniProt Q86U86, 645-766: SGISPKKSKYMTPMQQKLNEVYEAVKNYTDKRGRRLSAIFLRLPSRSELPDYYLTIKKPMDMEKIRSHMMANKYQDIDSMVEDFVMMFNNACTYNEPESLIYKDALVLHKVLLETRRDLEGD
# [1] = biological target: BRM (Isoform 2) Bromodomain (Homo sapiens, UniProt P51531); experiment: biochemical
# From the text: IC50 measurements for inhibitors using BRM SM TR-FRET Binding Assay
# [2] = biological target: Polybromodomain-1 BromoDomain-5 (PB1-BD5) (Homo sapiens, UniProt Q86U86); experiment: biochemical
# From the text: IC50 measurements for inhibitors using Polybromodomain-1 BromoDomain-5 (PB1-BD5) SM TR-FRET Binding Assay
smiles,measurement,setting,value
"CC1CN(c2cc(-c3ccccc3O)nnc2N)CCN1S(C)(=O)=O (stereo not shown) [Example 108, 2-(6-amino-5-(3-methyl-4-(methylsulfonyl)piperazin-1-yl)pyridazin-3-yl)phenol]",IC50,[1],35.8 nM
same,IC50,[2],15.9 nM
"Nc1nnc(-c2ccccc2O)cc1C1CCCCC1 [Example 209, 2-(6-amino-5-cyclohexylpyridazin-3-yl)phenol]",IC50,[1],8.8 nM
same,IC50,[2],5.2 nM
